From patent publication US10357572B2, “Prodrugs activated by caspase” (priority 2014, dated 2019)

How the values were obtained:
[1] = tested on: SCC7; details: up to 100 μM, absence of caspase-3
[2] = tested on: MDA-MB-231; details: up to 100 μM, absence of caspase-3

Substance: HSA-maleimide-KGDEVD-PABC-doxorubicin
- cytotoxic effect (MTT assay) [1]: did not show any noticeable cytotoxic effect
- cytotoxic effect (MTT assay) [2]: did not show any noticeable cytotoxic effect
